For one substance, IC50 results are on record in US9758541B2 (priority 2013, dated 2017).

This experiment concerns MDA-MB-231 cells (non-hormone-dependent breast cancer cells). In words: Cell proliferation assay (MTS, 72 h) on MDA-MB-231 cells. The experiment is classed as cell-based. Conditions: Table 4, compounds of the invention vs chlorinated analogs.

“5-chloro-2-ferrocenyl-1,1-bis-(4-hydroxyphenyl)-pent-1-ene”: the IC50 stood at 4.63 µM.

Usually IC50 stands for the point on the concentration scale where inhibition reaches its midpoint.
